Results on one compound are retold here after patent EP1682577B1, “CELL-BASED ASSAYS EMPLOYING VOLTAGE AND CALCIUM DYES” (priority 2003, dated 2005).

Amino acid sequences for entries named in this document (tags omitted). Residues count along the entry.
UniProt O60894, 27-148, species assumed: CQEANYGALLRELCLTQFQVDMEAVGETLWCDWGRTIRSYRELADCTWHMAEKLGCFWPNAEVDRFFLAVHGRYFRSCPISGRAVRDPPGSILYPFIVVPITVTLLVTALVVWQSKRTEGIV
UniProt Q16602, 23-461, species assumed: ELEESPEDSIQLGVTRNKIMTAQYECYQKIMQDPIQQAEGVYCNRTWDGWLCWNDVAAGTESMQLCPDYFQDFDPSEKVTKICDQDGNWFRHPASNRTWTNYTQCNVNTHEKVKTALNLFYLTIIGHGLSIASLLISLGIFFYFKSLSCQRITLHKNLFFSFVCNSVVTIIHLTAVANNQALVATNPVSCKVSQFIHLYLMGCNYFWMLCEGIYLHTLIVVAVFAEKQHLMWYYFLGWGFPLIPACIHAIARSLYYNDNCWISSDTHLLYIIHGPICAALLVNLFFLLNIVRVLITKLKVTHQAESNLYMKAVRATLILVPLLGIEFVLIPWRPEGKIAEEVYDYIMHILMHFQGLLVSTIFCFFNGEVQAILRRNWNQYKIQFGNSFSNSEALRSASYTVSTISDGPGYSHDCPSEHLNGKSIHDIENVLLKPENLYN

The experiment deals with CALCRL (Homo sapiens, UniProt O60894+Q16602). The experiment in a line: Quencher dye screening, CNG channel cell response: hCGRPb on CALCRL. It counts as cell-based. As to conditions: cell line ASC0156.

Broadly, the EC50 is the concentration giving half of the maximal effect. Take `CSCC[C@H](NC(=O)CNC(=O)CNC(=O)[C@H](CO)NC(=O)[C@H](CCCNC(=N)N)NC(=O)[C@H](CO)NC(=O)[C@H](CC(C)C)NC(=O)[C@H](CC(C)C)NC(=O)CNC(=O)[C@H](C)NC(=O)[C@H](CC(C)C)NC(=O)[C@H](CCCNC(=N)N)NC(=O)[C@H](Cc1c[nH]cn1)NC(=O)[C@@H](NC(=O)[C@@H](NC(=O)[C@@H]1CSSC[C@H](NC(=O)[C@H](C)N)C(=O)N[C@@H](CC(N)=O)C(=O)N[C@@H]([C@@H](C)O)C(=O)N[C@@H](C)C(=O)N[C@@H]([C@@H](C)O)C(=O)N1)C(C)C)[C@@H](C)O)C(=O)N[C@H](C(=O)N[C@@H](CCCCN)C(=O)N[C@@H](CO)C(=O)N[C@@H](CC(N)=O)C(=O)N[C@@H](Cc1ccccc1)C(=O)N[C@H](C(=O)N1CCC[C@H]1C(=O)N[C@H](C(=O)N[C@@H](CC(N)=O)C(=O)N[C@H](C(=O)NCC(=O)N[C@@H](CO)C(=O)N[C@@H](CCCCN)C(=O)N[C@@H](C)C(=O)N[C@@H](Cc1ccccc1)C(N)=O)C(C)C)[C@@H](C)O)C(C)C)C(C)C` [hCGRPb]: the concentration for a half-maximal effect (EC50) reads like this: (MDC dye) 0.018 nM; (dye NY & H30602) 0.016 nM.
